Measurements reported in patent publication US20220016215A1, “GIP RECEPTOR AGONIST PEPTIDE COMPOUNDS AND USES THEREOF” (TAKEDA PHAARMACEUTICAL COMPANY LIMITED, priority 2018, published 2022).

The chains behind the UniProt entries cited, without tags or fusion partners. Residues count along the entry.
UniProt P43220, 24-463: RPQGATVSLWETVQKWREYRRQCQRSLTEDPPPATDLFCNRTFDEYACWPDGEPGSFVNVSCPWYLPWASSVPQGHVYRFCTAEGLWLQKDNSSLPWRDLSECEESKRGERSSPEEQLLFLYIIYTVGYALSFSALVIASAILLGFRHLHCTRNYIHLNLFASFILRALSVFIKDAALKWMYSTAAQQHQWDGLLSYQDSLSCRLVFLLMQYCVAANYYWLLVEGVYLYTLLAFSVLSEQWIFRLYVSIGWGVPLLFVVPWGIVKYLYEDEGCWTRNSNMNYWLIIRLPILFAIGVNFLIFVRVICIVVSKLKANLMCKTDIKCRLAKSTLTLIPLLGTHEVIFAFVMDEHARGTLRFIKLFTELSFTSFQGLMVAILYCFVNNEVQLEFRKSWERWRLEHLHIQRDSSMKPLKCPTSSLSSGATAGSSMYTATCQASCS

Target: human GLP-1R (Homo sapiens, UniProt P43220)
Test: Agonist activity on human GLP-1R, CRE-luciferase reporter assay (increase in intracellular cAMP as indicator)
Assay type: cell-based
Design: expressed in transfected cells

Compound: CC[C@H](C)[C@H](NC(=O)[C@H](CO)NC(=O)[C@H](Cc1ccc(O)cc1)NC(=O)[C@H](CC(=O)O)NC(=O)[C@H](CO)NC(=O)[C@@H](NC(=O)[C@H](Cc1ccccc1)NC(=O)[C@@H](NC(=O)CNC(=O)[C@H](CCC(=O)O)NC(=O)[C@@H](C)NC(=O)[C@@H](N)Cc1ccc(O)cc1)[C@@H](C)O)[C@@H](C)CC)C(=O)N[C@@H](C)C(=O)N[C@@H](CCSC)C(=O)N[C@@H](CC(=O)O)C(=O)N[C@@H](CCCCN)C(=O)N[C@H](C(=O)N[C@@H](Cc1c[nH]cn1)C(=O)N[C@@H](CCC(N)=O)C(=O)N[C@@H](CCC(N)=O)C(=O)N[C@@H](CC(=O)O)C(=O)N[C@@H](Cc1ccccc1)C(=O)N[C@H](C(=O)N[C@@H](CC(N)=O)C(=O)N[C@@H](Cc1c[nH]c2ccccc12)C(=O)N[C@@H](CC(C)C)C(=O)N[C@@H](CC(C)C)C(=O)N[C@@H](C)C(=O)N[C@@H](CCC(N)=O)C(=O)N[C@@H](CCCCN)C(=O)N1CCC[C@H]1C(=O)N[C@@H](CO)C(=O)N[C@@H](CO)C(=O)NCC(=O)N[C@@H](C)C(=O)N1CCC[C@H]1C(=O)N1CCC[C@H]1C(=O)N1CCC[C@H]1C(=O)N[C@@H](CO)C(N)=O)C(C)C)[C@@H](C)CC [Compound 11]
- EC50: 832 nM
